Test results from patent US20230013669A1, “Antibacterial Treatment Using a Cannabinoid and an Active Agent” (priority 2019, published 2023).
Several values for one entry are separate records, joined by “and”; a condition that tells them apart may be missing. Identical values can stand only once.

Experiments:
Assay in all cases: Synergy of cannabidiol with cell-wall disrupting agent (CBD MIC in combination, FICI)
[1] = system: Klebsiella pneumoniae ATCC 13883 (GN_003 / GN_004); format: cell-based; details: Example 4, CBD + MCC_006442, calculated with CBD MIC 256 μg/mL, listed as CBD
Procedure: (§1) The compounds were stored short term at 4° C.
(§2) Analysis was performed using Microsoft Excel.

[2] = system: Acinetobacter baumannii ATCC 19606 (GN_034); format: cell-based
Procedure: as §1, §2

[3] = system: Klebsiella pneumoniae BAA-2146 (GN_045), NDM-1; format: cell-based; details: Example 9, CBD + MCC_09222, calculated with CBD MIC 256 μg/mL
Procedure: as §1, §2

[4] = system: Escherichia coli ATCC 25922 (GN_001); format: cell-based; details: calculated with CBD MIC 256 μg/mL
Procedure: as §1, §2

[5] = system: Escherichia coli HS71 (GN_110), CTX-M; format: cell-based; details: Example 9, CBD + MCC_09222, calculated with CBD MIC 256 μg/mL
Procedure: as §1, §2

[6] = system: Pseudomonas aeruginosa ATCC 27853 (GN_042); format: cell-based; details: Example 6, CBD + Polymyxin B, calculated with CBD MIC 256 μg/mL, listed as CBD
Procedure: as §1, §2

[7] = system: Enterobacter cloacae CI Patercon BoxNo: 79 (GN_016), MDR; details: Example 8, CBD + MCC_00636, calculated with CBD MIC 256 μg/mL

C=C(C)C1CCC(C)=CC1c1c(O)cc(CCCCC)cc1O (stereo not drawn) [Cannabidiol, 2-[3-methyl-6-(1-methylethenyl)-2-cyclohexen-1-yl]-5-pentyl-1,3-benzenediol]
FICI range [1]: 0.25-1.13 and 0.13-1.06 | FICI range ([2]; Example 2, CBD + cefuroxime, calculated with CBD MIC 256 μg/mL): 0.38-2 | FICI range ([2]; Example 3, CBD + colistin, calculated with CBD MIC 256 μg/mL): 0.05-1 | FICI range ([2]; Example 4, CBD + MCC_006442, calculated with CBD MIC 256 μg/mL): 0.07-1.02 | FICI range ([2]; Example 5, CBD + aztreonam, calculated with CBD MIC 256 μg/mL): 0.38-1.13 | FICI range ([2]; Example 5, CBD + cefepime, calculated with CBD MIC 256 μg/mL): 0.38-1.13 | FICI range [3]: 0.13-1.03 | FICI range ([4]; Example 3, CBD + colistin): 0.16-1.06 | FICI range ([4]; Example 6, CBD + Polymyxin B, listed as CBD): 0.26-1.13 and 0.27-1.13 | FICI range [5]: 0.08-4 | FICI range [6]: 0.26-1.13 and 0.27-1.13 | FICI range [7]: 0.04-1.02
